Earlier results in patent US7147837B2, “Bioactivated diagnostic imaging constrast agents” (Epix Pharmaceuticals, Inc., priority 1996, dated 2006).

Test system: alpha 1-acid glycoprotein (AAG)
Conditions: binding to AAG; cited from earlier work

## CN(C)CCCN1c2ccccc2CCc2ccccc21 [imipramine]
  Ka: 2.4×10^5
